# Reported vapor pressure values for industrial, environmental and drug-like chemicals

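The numbers are reported measurements, compiled and curated for the OPERA QSAR suite. One number stands for a compound and property, with no spread given. Method and conditions are not stated for these values. Where a salt, mixture or single isomer is drawn, the source does not say that exactly this form was tested. Unmarked limits or estimates from the upstream databases cannot be ruled out.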

Vapor pressures (log10 mmHg) refer to near room temperature, 15 to 30 °C; higher is more volatile. Cells with "–" have no entry in this list.

structure (SMILES)	name	log VP (log10 mmHg)
Nc1nnn[nH]1	Tetrazol-5-ylamine	-8.277
Oc1c(O)c(Cl)c(Cl)c(Cl)c1Cl	–	-3.295
Clc1ccc(-c2c(Cl)ccc(Cl)c2Cl)c(Cl)c1	2,2',3,4',6-Pentachlorobiphenyl	-3.128
O=C(Cl)CCCCCl	Valeryl chloride, 5-chloro-	-0.523
CC(C)CCCCCCCOP(=S)([S-])OCCCCCCCC(C)C.CC(C)CCCCCCCOP(=S)([S-])OCCCCCCCC(C)C.[Zn+2]	–	-4.736
CN(C)C(=S)[S-].[K+]	Potassium dimethyldithiocarbamate	-6.182
O=Nc1ccc(O)cc1	4-Nitrosophenol	-4.62
FC(F)C(F)(F)COC(F)(F)C(F)C(F)(F)F (stereo not drawn)	1,1,1,2,3,3-Hexafluoro-3-(2,2,3,3-tetrafluoropropoxy)propane	1.307
CC(Oc1ccc(Oc2cnc3cc(Cl)ccc3n2)cc1)C(=O)O (stereo not drawn)	Quizalofop	-2.187
O=c1sc2ccccc2c(O)c1C1CC(c2ccc(-c3ccc(Br)cc3)cc2)Cc2ccccc21 (stereo not drawn)	Difethialone	-6.256
CC(C)(c1ccc(OC#N)cc1)c1ccc(OC#N)cc1	1,3-Bis(4-cyanophenyl)propane	-7.322
CC(C)OC(=O)[C@H](C)N[P@](=O)(Oc1ccccc1)Oc1c(F)c(F)c(F)c(F)c1F	–	-6.581
Clc1cc(Cl)c(Cl)c(-c2cc(Cl)cc(Cl)c2Cl)c1	2,2',3,3',5,5'-Hexachlorobiphenyl	-5.225
CCOC(=O)CCSP(=S)(OC(C)C)OC(C)C	–	-3.645
CC(C)C1(C)N=C(c2ncccc2C(=O)O)NC1=O (stereo not drawn)	Imazapyr	-10.53
N#C[C@@H](O)c1cccc(Oc2ccccc2)c1	(2S)-Hydroxy(3-phenoxyphenyl)acetonitrile	-6.326
Cn1sc(Cl)cc1=O	5-Chloro-2-methyl-3(2H)-isothiazolone	-1.745
CC(=O)Nc1ccc2c(c1)Cc1ccccc1-2	2-Acetylaminofluorene	-3.638
CCCCOC(=O)CCP1(=O)Oc2ccccc2-c2ccccc21 (stereo not drawn)	–	-8.989
CCOC(=O)C1OC1(C)c1ccccc1 (stereo not drawn)	Ethyl methylphenylglycidate	-2.763
FC(C(F)(F)F)C(F)(F)OCC(F)(F)F (stereo not drawn)	(2H-Perfluoropropyl)(1H,1H-perfluoroethyl)ether	1.972
Clc1ccc2oc3ccc(Cl)cc3c2c1	2,8-Dichlorodibenzofuran	-5.533
Clc1cccc(-c2c(Cl)ccc(Cl)c2Cl)c1Cl	2,2',3,3',6-Pentachlorobiphenyl	-4.315
CC(C)OC(=O)OOC(C)(C)C	tert-Butylperoxy isopropyl carbonate	-0.329
CN(C)C(=S)[S-].CN(C)C(=S)[S-].CN(C)C(=S)[S-].[Fe+3]	Ferbam	-6.552
Clc1cc2oc3cc(Cl)c(Cl)c(Cl)c3c2c(Cl)c1Cl	1,2,3,7,8,9-Hexachlorodibenzo[b,d]furan	-7.425
Clc1ccc(-c2c(Cl)c(Cl)cc(Cl)c2Cl)cc1	2,3,4',5,6-Pentachlorobiphenyl	-4.405
NC1CC1c1ccc(F)c(F)c1.O=C(O)C(O)c1ccccc1 (stereo not drawn)	–	-6.046
C=CCOCC1CO1 (stereo not drawn)	Allyl glycidyl ether	0.614
CS(=O)(=O)Cl	Methanesulfonyl chloride	0.421
CCCNP(N)(N)=S	–	-5.862
Clc1ccccc1-c1cccc(Cl)c1Cl	2,2',3-Trichlorobiphenyl	-3.285
Cc1cc(C)c(C(=O)P(=O)(C(=O)c2c(C)cc(C)cc2C)c2ccccc2)c(C)c1	(Phenylphosphoryl)bis[(2,4,6-trimethylphenyl)methanone]	-8.625
CNC(=O)c1cc(C#N)cc(C)c1NC(=O)c1cc(Cn2nnc(C(F)(F)F)n2)nn1-c1ncccc1Cl	Tetraniliprole	-7.546

The last 5 entries again:

structure (SMILES)	name	log VP (log10 mmHg)
CS(=O)(=O)Cl	Methanesulfonyl chloride	0.421
CCCNP(N)(N)=S	–	-5.862
Clc1ccccc1-c1cccc(Cl)c1Cl	2,2',3-Trichlorobiphenyl	-3.285
Cc1cc(C)c(C(=O)P(=O)(C(=O)c2c(C)cc(C)cc2C)c2ccccc2)c(C)c1	(Phenylphosphoryl)bis[(2,4,6-trimethylphenyl)methanone]	-8.625
CNC(=O)c1cc(C#N)cc(C)c1NC(=O)c1cc(Cn2nnc(C(F)(F)F)n2)nn1-c1ncccc1Cl	Tetraniliprole	-7.546

Data: OPERA 2.9 data sets, kmansouri/OPERA on GitHub.